The record followed here is patent US6417247B1, “Polymer/ceramic composites” (priority 1997, dated 2002).

The nature of this data set: Release of model compounds from chitosan-calcium phosphate composites in PBS. Conditions: chitosan-TCP composite, PBS pH 7.4, 37° C., FIG. 12.

For the substance bovine serum albumin [BSA], the “time over which the model compound was released from the composite” value stood at 40 h.
